Values quoted from earlier work in article PMC11999338, “Factor XI localization in human deep venous thrombus and function of activated factor XI on venous thrombus formation and hemostasis” (Research and Practice in Thrombosis and Haemostasis, 2025).

Parameters: method as in PMID 35385695
Conditions: patients with atrial fibrillation; asundexian 50 mg, once daily; cited from earlier work

## asundexian
  bleeding rate: 0.4%
